Source: US20260384438A1, “PYRROLOPYRIMIDINE CARBOXAMIDES” (published 2026)
“And” between values parts separate entries of the source, which are not always exact repeats. Identical values can stand only once. Like-named read-outs stand apart in the source and are kept apart here.

Sequences of proteins named here, by UniProt entry; tags and fusion partners are left off. A change or cut given only in a name is not applied to a line headed by its entry. Residues count along the entry.
UniProt P37288, whole entry: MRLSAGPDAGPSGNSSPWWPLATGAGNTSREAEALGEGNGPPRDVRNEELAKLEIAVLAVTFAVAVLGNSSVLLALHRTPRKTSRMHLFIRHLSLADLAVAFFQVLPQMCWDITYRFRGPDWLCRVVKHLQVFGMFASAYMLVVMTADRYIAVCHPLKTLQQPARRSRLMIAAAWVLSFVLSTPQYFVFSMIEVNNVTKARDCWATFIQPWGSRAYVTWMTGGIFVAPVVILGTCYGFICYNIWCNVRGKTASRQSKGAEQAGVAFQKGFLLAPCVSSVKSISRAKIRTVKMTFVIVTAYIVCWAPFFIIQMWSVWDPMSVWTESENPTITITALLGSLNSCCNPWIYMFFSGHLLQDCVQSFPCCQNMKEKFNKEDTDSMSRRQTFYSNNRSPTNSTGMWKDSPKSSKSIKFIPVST
UniProt Q13639, whole entry: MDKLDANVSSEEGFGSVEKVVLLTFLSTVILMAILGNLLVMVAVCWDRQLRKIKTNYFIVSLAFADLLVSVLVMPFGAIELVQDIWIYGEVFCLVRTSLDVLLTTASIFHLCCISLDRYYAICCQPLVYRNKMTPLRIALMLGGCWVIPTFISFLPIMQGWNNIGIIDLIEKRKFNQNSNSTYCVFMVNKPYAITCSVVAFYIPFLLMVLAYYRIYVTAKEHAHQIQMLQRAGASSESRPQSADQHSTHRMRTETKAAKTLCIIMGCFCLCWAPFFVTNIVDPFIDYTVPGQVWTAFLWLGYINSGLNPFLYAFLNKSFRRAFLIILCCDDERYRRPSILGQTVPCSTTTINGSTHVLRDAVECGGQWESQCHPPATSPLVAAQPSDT
UniProt P10275, whole entry: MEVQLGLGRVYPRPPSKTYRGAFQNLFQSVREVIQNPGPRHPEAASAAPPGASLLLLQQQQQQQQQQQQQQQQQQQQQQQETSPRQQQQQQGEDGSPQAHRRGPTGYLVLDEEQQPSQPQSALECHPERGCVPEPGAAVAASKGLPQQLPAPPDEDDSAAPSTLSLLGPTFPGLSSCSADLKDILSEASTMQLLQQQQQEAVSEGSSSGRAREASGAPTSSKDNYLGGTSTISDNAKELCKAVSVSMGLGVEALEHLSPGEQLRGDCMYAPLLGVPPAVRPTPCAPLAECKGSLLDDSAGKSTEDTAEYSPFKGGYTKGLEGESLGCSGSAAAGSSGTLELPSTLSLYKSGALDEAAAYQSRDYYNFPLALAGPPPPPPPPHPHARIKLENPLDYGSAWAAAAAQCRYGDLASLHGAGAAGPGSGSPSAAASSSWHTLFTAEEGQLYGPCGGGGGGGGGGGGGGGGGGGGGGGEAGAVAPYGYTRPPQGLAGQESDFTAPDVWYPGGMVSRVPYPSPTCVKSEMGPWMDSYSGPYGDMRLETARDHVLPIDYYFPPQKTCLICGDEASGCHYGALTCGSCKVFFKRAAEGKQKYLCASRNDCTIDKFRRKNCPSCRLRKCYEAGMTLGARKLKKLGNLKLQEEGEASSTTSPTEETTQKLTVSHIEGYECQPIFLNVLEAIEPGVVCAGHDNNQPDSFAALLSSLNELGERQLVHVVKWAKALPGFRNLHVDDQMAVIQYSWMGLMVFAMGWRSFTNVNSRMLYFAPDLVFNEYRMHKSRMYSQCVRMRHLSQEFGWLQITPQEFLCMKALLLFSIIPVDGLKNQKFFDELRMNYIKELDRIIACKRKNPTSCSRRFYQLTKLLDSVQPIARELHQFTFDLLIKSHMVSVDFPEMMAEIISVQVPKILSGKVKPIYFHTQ
UniProt P14416, whole entry: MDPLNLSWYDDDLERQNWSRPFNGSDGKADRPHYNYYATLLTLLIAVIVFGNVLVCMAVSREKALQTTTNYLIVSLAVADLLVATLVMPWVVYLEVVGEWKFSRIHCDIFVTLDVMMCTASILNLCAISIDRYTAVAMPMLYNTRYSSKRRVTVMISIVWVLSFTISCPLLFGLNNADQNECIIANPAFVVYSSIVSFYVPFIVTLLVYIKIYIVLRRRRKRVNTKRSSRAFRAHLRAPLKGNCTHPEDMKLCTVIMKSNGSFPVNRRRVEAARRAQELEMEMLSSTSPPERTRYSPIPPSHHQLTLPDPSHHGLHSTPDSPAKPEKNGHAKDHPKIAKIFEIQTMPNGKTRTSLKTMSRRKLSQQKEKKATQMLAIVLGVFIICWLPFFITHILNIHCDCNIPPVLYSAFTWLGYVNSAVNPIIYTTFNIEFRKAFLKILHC
UniProt P28565, whole entry: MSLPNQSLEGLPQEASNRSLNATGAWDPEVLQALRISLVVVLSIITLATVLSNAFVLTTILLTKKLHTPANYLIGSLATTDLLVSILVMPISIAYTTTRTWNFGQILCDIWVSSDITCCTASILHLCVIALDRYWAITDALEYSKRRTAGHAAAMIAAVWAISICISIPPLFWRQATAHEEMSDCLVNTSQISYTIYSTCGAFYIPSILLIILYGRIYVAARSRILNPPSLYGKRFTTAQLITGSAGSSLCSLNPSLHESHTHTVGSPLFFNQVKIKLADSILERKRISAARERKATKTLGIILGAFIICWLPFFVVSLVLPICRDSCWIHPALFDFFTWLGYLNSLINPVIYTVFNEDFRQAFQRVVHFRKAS
UniProt P32238, whole entry: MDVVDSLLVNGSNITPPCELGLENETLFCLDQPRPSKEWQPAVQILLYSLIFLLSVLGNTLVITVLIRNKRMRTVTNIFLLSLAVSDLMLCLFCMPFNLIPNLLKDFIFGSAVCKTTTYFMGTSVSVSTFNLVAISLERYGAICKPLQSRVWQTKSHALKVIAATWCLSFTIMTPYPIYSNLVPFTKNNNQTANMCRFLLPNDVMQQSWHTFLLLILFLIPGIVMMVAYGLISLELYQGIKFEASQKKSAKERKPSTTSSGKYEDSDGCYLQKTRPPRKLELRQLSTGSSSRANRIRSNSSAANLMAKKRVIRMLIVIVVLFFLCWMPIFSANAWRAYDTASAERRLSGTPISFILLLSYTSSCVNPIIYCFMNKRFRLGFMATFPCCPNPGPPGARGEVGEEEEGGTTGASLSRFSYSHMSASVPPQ
UniProt P10276, whole entry: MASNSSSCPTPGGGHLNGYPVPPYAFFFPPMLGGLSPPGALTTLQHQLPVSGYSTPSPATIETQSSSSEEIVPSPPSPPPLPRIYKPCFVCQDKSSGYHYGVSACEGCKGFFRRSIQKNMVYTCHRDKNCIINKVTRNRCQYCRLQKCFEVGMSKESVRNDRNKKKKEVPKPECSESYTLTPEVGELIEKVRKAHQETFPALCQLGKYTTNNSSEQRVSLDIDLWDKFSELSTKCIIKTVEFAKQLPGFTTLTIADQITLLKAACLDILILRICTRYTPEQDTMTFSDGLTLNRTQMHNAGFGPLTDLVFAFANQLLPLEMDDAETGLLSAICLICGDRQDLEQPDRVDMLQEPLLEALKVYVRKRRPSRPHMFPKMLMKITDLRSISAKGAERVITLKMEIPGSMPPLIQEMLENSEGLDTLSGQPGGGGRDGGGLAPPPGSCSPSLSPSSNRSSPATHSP
UniProt P21728, whole entry: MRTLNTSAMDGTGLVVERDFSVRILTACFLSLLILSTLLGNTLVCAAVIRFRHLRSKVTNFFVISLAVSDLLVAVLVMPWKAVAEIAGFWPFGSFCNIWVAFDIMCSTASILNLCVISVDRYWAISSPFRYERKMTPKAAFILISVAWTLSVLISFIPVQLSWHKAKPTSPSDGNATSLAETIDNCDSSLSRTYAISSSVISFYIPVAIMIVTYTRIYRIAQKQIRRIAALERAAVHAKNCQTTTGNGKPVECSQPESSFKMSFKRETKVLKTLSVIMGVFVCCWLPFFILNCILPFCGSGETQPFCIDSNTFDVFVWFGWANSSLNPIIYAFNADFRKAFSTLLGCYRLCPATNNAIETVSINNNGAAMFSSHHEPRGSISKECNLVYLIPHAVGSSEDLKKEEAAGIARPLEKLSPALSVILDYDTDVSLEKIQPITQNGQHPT
UniProt P21731, whole entry: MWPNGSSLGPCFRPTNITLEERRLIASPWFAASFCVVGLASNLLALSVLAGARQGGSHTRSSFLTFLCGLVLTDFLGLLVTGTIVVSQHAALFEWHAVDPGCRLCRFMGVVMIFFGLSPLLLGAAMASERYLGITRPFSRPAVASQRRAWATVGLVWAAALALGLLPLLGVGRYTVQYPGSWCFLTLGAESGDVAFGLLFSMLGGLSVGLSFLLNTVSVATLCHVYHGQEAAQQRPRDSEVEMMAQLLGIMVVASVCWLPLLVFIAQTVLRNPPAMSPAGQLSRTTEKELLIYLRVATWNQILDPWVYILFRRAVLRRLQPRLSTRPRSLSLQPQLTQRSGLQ
UniProt P36544, 23-502 limits assumed: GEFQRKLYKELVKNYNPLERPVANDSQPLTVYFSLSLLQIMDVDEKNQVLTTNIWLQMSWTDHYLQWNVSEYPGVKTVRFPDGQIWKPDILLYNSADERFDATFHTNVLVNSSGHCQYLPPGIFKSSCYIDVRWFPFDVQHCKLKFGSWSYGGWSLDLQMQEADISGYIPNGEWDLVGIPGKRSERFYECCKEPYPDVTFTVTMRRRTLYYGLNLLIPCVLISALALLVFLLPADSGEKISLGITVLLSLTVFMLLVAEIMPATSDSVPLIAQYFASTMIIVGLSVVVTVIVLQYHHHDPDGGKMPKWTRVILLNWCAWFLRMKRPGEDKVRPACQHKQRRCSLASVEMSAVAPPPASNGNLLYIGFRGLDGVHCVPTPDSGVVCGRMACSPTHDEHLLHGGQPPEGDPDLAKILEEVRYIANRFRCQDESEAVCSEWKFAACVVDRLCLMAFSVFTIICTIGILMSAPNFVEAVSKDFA
UniProt P28222, whole entry: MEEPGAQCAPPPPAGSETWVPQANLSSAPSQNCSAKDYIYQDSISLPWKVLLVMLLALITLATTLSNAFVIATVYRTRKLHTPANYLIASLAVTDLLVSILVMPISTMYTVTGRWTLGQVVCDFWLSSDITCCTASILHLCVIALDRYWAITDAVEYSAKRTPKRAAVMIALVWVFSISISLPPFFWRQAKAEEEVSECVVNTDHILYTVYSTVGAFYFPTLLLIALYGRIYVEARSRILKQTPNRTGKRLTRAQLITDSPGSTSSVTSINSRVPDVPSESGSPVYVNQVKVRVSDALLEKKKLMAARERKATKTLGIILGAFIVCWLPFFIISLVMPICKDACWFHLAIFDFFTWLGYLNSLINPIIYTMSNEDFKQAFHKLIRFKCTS
UniProt P08913, whole entry: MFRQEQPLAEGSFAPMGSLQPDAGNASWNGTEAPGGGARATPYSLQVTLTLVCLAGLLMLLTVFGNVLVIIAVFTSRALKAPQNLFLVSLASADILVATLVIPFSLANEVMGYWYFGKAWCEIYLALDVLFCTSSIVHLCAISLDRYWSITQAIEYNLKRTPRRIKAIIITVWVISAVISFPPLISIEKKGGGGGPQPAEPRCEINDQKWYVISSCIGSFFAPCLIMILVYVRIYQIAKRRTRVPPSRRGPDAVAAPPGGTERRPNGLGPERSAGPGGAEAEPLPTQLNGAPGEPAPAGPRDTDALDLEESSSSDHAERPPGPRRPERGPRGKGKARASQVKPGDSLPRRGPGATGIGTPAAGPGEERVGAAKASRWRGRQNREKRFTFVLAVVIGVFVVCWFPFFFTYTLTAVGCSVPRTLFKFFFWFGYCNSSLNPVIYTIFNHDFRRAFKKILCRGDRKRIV
UniProt P31645, whole entry: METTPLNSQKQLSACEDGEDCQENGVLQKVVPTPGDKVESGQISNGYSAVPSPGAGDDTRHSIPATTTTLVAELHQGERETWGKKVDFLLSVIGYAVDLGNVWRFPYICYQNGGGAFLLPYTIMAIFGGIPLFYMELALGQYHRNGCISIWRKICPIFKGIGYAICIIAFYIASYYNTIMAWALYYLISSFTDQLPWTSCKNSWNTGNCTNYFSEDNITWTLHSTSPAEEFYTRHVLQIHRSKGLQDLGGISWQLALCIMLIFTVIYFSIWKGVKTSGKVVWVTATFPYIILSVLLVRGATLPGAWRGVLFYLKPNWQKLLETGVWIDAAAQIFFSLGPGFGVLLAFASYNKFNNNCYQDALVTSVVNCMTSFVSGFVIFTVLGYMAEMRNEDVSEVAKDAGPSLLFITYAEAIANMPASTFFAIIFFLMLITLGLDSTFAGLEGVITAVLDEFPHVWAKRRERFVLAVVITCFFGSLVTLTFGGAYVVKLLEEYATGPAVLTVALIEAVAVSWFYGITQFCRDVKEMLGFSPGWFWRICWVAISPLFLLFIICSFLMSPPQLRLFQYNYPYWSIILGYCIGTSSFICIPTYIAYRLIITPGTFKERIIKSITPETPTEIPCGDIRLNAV
UniProt P31391, whole entry: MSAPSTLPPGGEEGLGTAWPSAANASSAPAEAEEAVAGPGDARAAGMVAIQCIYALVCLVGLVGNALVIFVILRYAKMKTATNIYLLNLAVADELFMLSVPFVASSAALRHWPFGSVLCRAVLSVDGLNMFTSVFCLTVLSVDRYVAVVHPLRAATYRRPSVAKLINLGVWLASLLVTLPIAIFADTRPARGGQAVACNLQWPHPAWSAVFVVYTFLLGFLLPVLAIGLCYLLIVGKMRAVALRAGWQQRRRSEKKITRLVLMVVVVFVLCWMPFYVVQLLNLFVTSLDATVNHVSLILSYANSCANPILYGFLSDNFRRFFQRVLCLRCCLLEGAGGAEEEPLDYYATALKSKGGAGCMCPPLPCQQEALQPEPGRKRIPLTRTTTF

Legend:
V1A vasopressin receptor = V1A vasopressin receptor (Homo sapiens, UniProt P37288); experiment: Secondary pharmacology, radioligand binding
[1] = test system: NMDA receptor (Phencyclidine site); experiment: Secondary pharmacology, radioligand binding
β1 adrenoceptor = β1 adrenoceptor (Homo sapiens, UniProt P08588); experiment: Secondary pharmacology, radioligand binding
5-HT4 receptor = 5-HT4 receptor (Homo sapiens, UniProt Q13639); experiment: Secondary pharmacology, radioligand binding
M1 muscarinic receptor = M1 muscarinic receptor (Homo sapiens, UniProt P11229); experiment: Secondary pharmacology, radioligand binding
α1B adrenoceptor = α1B adrenoceptor (Homo sapiens, UniProt P35368); experiment: Secondary pharmacology, radioligand binding
Androgen receptor = Androgen receptor (Homo sapiens, UniProt P10275); experiment: Secondary pharmacology, radioligand binding
D2l dopamine receptor = D2l dopamine receptor (Homo sapiens, UniProt P14416); experiment: Secondary pharmacology, radioligand binding
5-HT1D receptor = 5-HT1D receptor (Rattus norvegicus, UniProt P28565); experiment: Secondary pharmacology, radioligand binding
[2] = biological target: CCK1 cholecystokinin receptor (Homo sapiens, UniProt P32238); experiment: Secondary pharmacology, radioligand binding
5-HT2B receptor = 5-HT2B receptor (Homo sapiens, UniProt P41595); experiment: Secondary pharmacology, radioligand binding
Retinoic acid receptor-α = Retinoic acid receptor-α (Homo sapiens, UniProt P10276); experiment: Secondary pharmacology, radioligand binding
D1 dopamine receptor = D1 dopamine receptor (Homo sapiens, UniProt P21728); experiment: Secondary pharmacology, radioligand binding
α1A adrenoceptor = α1A adrenoceptor (Homo sapiens, UniProt P35348); experiment: Secondary pharmacology, radioligand binding
[3] = biological target: Glucocorticoid Receptor NR3C1 (Homo sapiens, UniProt P04150); experiment: Secondary pharmacology, radioligand binding
TP prostanoid receptor = TP prostanoid receptor (Homo sapiens, UniProt P21731); experiment: Secondary pharmacology, radioligand binding
5-HT3A receptor = 5-HT3A receptor (Homo sapiens, UniProt P46098); experiment: Secondary pharmacology, radioligand binding
D3 dopamine receptor = D3 dopamine receptor (Homo sapiens, UniProt P35462); experiment: Secondary pharmacology, radioligand binding
α7 nicotinic receptor = α7 nicotinic receptor (Homo sapiens, UniProt P36544); experiment: Secondary pharmacology, radioligand binding
α2C adrenoceptor = α2C adrenoceptor (Homo sapiens, UniProt P18825); experiment: Secondary pharmacology, radioligand binding
5-HT1B receptor = 5-HT1B receptor (Homo sapiens, UniProt P28222); experiment: Secondary pharmacology, radioligand binding
α2A adrenoceptor = α2A adrenoceptor (Homo sapiens, UniProt P08913); experiment: Secondary pharmacology, radioligand binding
[4] = biological target: Serotonin Transporter (SERT) (Homo sapiens, UniProt P31645); experiment: Secondary pharmacology, radioligand binding
A1 adenosine receptor = A1 adenosine receptor (Homo sapiens, UniProt P30542); experiment: Secondary pharmacology, radioligand binding
[5] = biological target: SST4 somatostatin receptor (Homo sapiens, UniProt P31391); experiment: Secondary pharmacology, radioligand binding
β2 adrenoceptor = β2 adrenoceptor (Homo sapiens, UniProt P07550); experiment: Secondary pharmacology, radioligand binding
α4 nicotinic receptor = α4 nicotinic receptor (Homo sapiens, UniProt P17787+P43681); experiment: Secondary pharmacology, radioligand binding
SKOV3 Parental = experiment: CellTiter-Glo growth inhibition, SKOV3 Parental
[6] = Metabolic stability in human hepatocytes in suspension (hHEP); conditions: 1 μM
[7] = Aqueous (thermodynamic) solubility, pH 7.4; conditions: 0.1 M phosphate buffer pH 7.4, 24 h, 25 °C
[8] = In vivo pharmacokinetics in female SCID mice (P.O., 10/30/100 mg/kg)

Cc1nc(C(F)(F)F)c2c(C(N)=O)c(N)n(-c3c(C)ccc(O)c3C)c2n1 (single isomer, unassigned)
9.1 µM·h: AUC ([8]; P.O. 30 mg/kg)
<1.324 μl/min/1E6: Hhep (CLint) [6]
3.6 µM: Cmax ([8]; P.O. 30 mg/kg)
> 100 µM: Ki (V1A vasopressin receptor; read-out: Binding Ki) | Ki ([1]; read-out: Binding Ki) | Ki (β1 adrenoceptor; read-out: Binding Ki) | Ki (5-HT4 receptor; read-out: Binding Ki) | Ki (M1 muscarinic receptor; read-out: Binding Ki) | Ki (α1B adrenoceptor; read-out: Binding Ki) | Ki (Androgen receptor; read-out: Binding Ki) | Ki (D2l dopamine receptor; read-out: Binding Ki) | Ki (5-HT1D receptor; read-out: Binding Ki) | Ki ([2]; read-out: Binding Ki) | Ki (5-HT2B receptor; read-out: Binding Ki) | Ki (Retinoic acid receptor-α; read-out: Binding Ki) | Ki (D1 dopamine receptor; read-out: Binding Ki) | Ki (α1A adrenoceptor; read-out: Binding Ki) | Ki ([3]; read-out: Binding Ki) | Ki (5-HT3A receptor; read-out: Binding Ki) | Ki (D3 dopamine receptor; read-out: Binding Ki) | Ki (α7 nicotinic receptor; read-out: Binding Ki) | Ki (α2C adrenoceptor; read-out: Binding Ki) | Ki (5-HT1B receptor; read-out: Binding Ki) | Ki (α2A adrenoceptor; read-out: Binding Ki) | Ki ([4]; read-out: Binding Ki) | Ki (A1 adenosine receptor; read-out: Binding Ki) | Ki ([5]; read-out: Binding Ki) | Ki (β2 adrenoceptor; read-out: Binding Ki) | Ki (α4 nicotinic receptor; read-out: Binding Ki)
0.5 h: Tmax ([8]; P.O. 10 mg/kg) | Tmax ([8]; P.O. 30 mg/kg) | Tmax ([8]; P.O. 100 mg/kg)
8.7 µM: Cmax ([8]; P.O. 100 mg/kg)
4.7 h: t1/2 ([8]; P.O. 100 mg/kg)
4.2 µM·h: AUC ([8]; P.O. 10 mg/kg)
4.4 h: t1/2 ([8]; P.O. 10 mg/kg)
1541 μM: Solubility pH 7.4 [7]
4.6 h: t1/2 ([8]; P.O. 30 mg/kg)
9.69 µM: GI50 (SKOV3 Parental; read-out: MEAN GI50 (N = 3), mean of N = 3, 7 days CTG)
25 µM·h: AUC ([8]; P.O. 100 mg/kg)
Inactive: Pharmacological mode of action (V1A vasopressin receptor) | Pharmacological mode of action [1] | Pharmacological mode of action (β1 adrenoceptor) | Pharmacological mode of action (5-HT4 receptor) | Pharmacological mode of action (M1 muscarinic receptor) | Pharmacological mode of action (α1B adrenoceptor) | Pharmacological mode of action (Androgen receptor) | Pharmacological mode of action (D2l dopamine receptor) | Pharmacological mode of action (5-HT1D receptor) | Pharmacological mode of action [2] | Pharmacological mode of action (5-HT2B receptor) | Pharmacological mode of action (Retinoic acid receptor-α) | Pharmacological mode of action (D1 dopamine receptor) | Pharmacological mode of action (α1A adrenoceptor) | Pharmacological mode of action [3] | Pharmacological mode of action (TP prostanoid receptor) | Pharmacological mode of action (5-HT3A receptor) | Pharmacological mode of action (D3 dopamine receptor) | Pharmacological mode of action (α7 nicotinic receptor) | Pharmacological mode of action (α2C adrenoceptor) | Pharmacological mode of action (5-HT1B receptor) | Pharmacological mode of action (α2A adrenoceptor) | Pharmacological mode of action [4] | Pharmacological mode of action (A1 adenosine receptor) | Pharmacological mode of action [5] | Pharmacological mode of action (β2 adrenoceptor) | Pharmacological mode of action (α4 nicotinic receptor)
> 30.1 µM: Ki (TP prostanoid receptor; read-out: Binding Ki)
10.1 µM and 9.93 µM and 9.02 µM: GI50 (SKOV3 Parental; read-out: GI50 VALUES, individual values, 7 days CTG)
1.3 µM: Cmax ([8]; P.O. 10 mg/kg)
